Assay results as given in US7368420B1, “Akt compositions for enhancing survival of cells” (Caritas St. Elizabeth's Medical Center of Boston, Inc., priority 1998, dated 2008).

Test system: Akt
Assay: Akt kinase assay (histone H2B) in HUVEC lysates
Type: cell-based, human
Conditions: serum-deprived HUVEC, VEGF 100 ng/ml, 15 min

Substance: VEGF
- Akt kinase activity: activated Akt kinase activity
